Reference: PubChem BioAssay (EPA / NIEHS)
The entries are a selection whose mix differs from that of the whole data set. Calls of active or inactive are those of the source. How the source made its calls: active means hit-call score of the fitted dose curve at least 0.9, where 1 is the maximum; inactive means score below 0.9.

Chains of the proteins cited; added tags and fusions are not shown.
UniProt P19838, whole entry: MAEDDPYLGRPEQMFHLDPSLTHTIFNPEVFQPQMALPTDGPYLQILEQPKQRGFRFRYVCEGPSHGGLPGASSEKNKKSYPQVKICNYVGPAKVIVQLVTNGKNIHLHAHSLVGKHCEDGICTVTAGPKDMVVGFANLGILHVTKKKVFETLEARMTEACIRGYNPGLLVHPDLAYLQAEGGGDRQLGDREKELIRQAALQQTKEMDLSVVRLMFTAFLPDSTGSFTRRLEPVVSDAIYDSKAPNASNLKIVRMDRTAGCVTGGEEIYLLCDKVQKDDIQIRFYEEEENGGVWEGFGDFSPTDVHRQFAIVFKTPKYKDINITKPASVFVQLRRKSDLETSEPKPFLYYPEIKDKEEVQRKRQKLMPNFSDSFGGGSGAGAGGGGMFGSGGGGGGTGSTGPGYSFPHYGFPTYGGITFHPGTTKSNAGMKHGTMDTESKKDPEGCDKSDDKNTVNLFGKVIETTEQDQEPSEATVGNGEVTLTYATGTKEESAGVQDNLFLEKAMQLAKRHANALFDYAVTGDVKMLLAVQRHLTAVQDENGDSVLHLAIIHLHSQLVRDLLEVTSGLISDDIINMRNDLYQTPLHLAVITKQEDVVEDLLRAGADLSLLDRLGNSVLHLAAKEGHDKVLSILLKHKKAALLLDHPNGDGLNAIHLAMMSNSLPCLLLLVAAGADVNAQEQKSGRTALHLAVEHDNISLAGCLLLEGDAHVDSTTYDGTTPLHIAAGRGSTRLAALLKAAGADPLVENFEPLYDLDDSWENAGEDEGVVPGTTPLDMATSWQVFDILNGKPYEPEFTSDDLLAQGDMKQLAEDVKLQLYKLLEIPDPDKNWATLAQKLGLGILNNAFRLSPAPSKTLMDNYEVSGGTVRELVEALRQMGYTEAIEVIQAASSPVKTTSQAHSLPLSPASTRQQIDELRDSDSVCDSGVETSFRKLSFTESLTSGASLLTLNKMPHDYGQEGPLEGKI
UniProt Q16236, whole entry: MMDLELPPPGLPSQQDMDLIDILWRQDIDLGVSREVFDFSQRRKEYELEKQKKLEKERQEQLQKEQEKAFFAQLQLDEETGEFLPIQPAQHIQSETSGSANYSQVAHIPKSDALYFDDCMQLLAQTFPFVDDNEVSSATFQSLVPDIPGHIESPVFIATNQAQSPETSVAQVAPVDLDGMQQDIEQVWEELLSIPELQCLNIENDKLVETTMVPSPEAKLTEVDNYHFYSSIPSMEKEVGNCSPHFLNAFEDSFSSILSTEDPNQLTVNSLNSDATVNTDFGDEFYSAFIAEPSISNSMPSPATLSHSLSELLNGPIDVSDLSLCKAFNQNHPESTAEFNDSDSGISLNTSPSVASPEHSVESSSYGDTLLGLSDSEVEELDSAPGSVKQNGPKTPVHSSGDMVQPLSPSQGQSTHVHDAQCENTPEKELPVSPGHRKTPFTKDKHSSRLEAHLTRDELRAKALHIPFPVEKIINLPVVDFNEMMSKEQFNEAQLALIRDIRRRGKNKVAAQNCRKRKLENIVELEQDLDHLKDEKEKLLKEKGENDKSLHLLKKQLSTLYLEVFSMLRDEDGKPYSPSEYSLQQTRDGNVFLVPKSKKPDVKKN

Key:
Settings in all cases: actives raise or lower the signal; mRNA level, 48 h
[1] = read-out: MYC, MYC (gene 4609); assay: LTEA_HepaRG_MYC: Life Technologies and Expression Analysis (LTEA) Assay for MYC using HepaRG (AID 2283518)
Outline: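 HepaRG, ~100,000 cells/well, collagen I; 48 h plating; serum-free induction medium; 48 h dosing, duplicate, 100 uM top, half-log, 0.5% DMSO; total RNA → qRT-PCR MYC; gain/loss fit vs DMSO.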

[2] = read-out: matrix metalloproteinase-3 (MMP3), MMP3 (gene 4314); assay: LTEA_HepaRG_MMP3: Life Technologies and Expression Analysis (LTEA) Assay for matrix metalloproteinase-3 (MMP3) using HepaRG (AID 2283519)
Outline: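 qRT-PCR read-out of MMP3 mRNA (normalised to three housekeeping genes) in HepaRG liver cells after 48 h chemical exposure; 8-point half-log series, top 100 uM, 0.5% DMSO vehicle. Bidirectional curve fitting against DMSO baseline.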

[3] = read-out: Paternally Expressed 10 (PEG10), PEG10 (gene 23089); assay: LTEA_HepaRG_PEG10: Life Technologies and Expression Analysis (LTEA) Assay for Paternally Expressed 10 (PEG10) using HepaRG (AID 2283520)
Outline: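 PEG10 transcript measured by Fluidigm qRT-PCR, normalized to three housekeeping genes, in HepaRG cells treated 48 h (highest 100 uM, half-log steps, 0.5% DMSO vehicle). Cells plated 48 h before switching to serum-free induction medium.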

[4] = read-out: Nuclear factor NF-kappa-B p105 subunit (Homo sapiens) (UniProt P19838); assay: LTEA_HepaRG_NFKB1: Life Technologies and Expression Analysis (LTEA) Assay for Nuclear Factor Kappa B Subunit 1 (NFKB1) using HepaRG (AID 2283521);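 further: differentiated human HepaRG liver cells in serum-free induction medium; TaqMan qRT-PCR transcript normalised to ACTB GAPDH and POLR2A housekeeping genes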
Outline: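 Human HepaRG cells receive eight half-log concentrations, highest 100 uM, for 48 h. NFKB1 expression is then quantified by qRT-PCR and analysed for up- or down-regulation relative to 0.5% DMSO vehicle.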

[5] = read-out: Protein phosphatase 2A (PPP2R4), PTPA (gene 5524); assay: LTEA_HepaRG_PPP2R4: Life Technologies and Expression Analysis (LTEA) Assay for Protein phosphatase 2A (PPP2R4) using HepaRG (AID 2283522)
Outline: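 Expression was quantified by Fluidigm qRT-PCR normalised to three housekeeping genes after 48 h treatment. Human HepaRG cells received an 8-point series from 100 µM downward by half-logs, in duplicate with 0.5% DMSO vehicle and 1 mM phenobarbital as induction control.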

[6] = read-out: Phosphatase and tensin (PTEN), PTEN (gene 5728); assay: LTEA_HepaRG_PTEN: Life Technologies and Expression Analysis (LTEA) Assay for Phosphatase and tensin (PTEN) using HepaRG (AID 2283523)
Outline: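 HepaRG, 48 h exposure, 8-pt half-log series from 100 uM top, 0.5% DMSO vehicle, duplicates. Readout: Fluidigm qRT-PCR of PTEN transcript; housekeeping normalization (ACTB, GAPDH, POLR2A). Gain or loss fitted relative to DMSO baseline.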

[7] = read-out: solute carrier (SLC22A1), SLC22A1 (gene 6580); assay: LTEA_HepaRG_SLC22A1: Life Technologies and Expression Analysis (LTEA) Assay for solute carrier (SLC22A1) using HepaRG (AID 2283524)
Outline: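 qRT-PCR readout (TaqMan, Fluidigm arrays) of SLC22A1 transcript, normalized to three housekeeping genes; bidirectional curve fit relative to 0.5% DMSO vehicle. Differentiated human HepaRG cells, 48 h chemical exposure, top concentration 100 uM, half-log steps, eight points.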

[8] = read-out: Pyruvate Dehydrogenase Kinase 4 (PDK4), PDK4 (gene 5166); assay: LTEA_HepaRG_PDK4: Life Technologies and Expression Analysis (LTEA) Assay for Pyruvate Dehydrogenase Kinase 4 (PDK4) using HepaRG (AID 2283525)
Outline: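 HepaRG (human liver line), 48 h chemical exposure, 8-pt half-log CRC top 100 uM, 0.5% DMSO vehicle, duplicates. Readout: TaqMan qRT-PCR of PDK4 mRNA, housekeeping-normalized; gain/loss fit relative to DMSO baseline.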

[9] = read-out: NAD(P)H dehydrogenase [quinone] 1 (NQO1), NQO1 (gene 1728); assay: LTEA_HepaRG_NQO1: Life Technologies and Expression Analysis (LTEA) Assay for NAD(P)H dehydrogenase [quinone] 1 (NQO1) using HepaRG (AID 2283526)
Outline: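 NQO1 transcript induction or loss measured by TaqMan qRT-PCR, referenced to three housekeeping genes and fitted bidirectionally against 0.5% DMSO. HepaRG cultures exposed 48 h, duplicate, eight-point half-log series, top 100 uM.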

[10] = read-out: Nuclear factor erythroid 2-related factor 2 (Homo sapiens) (UniProt Q16236); assay: LTEA_HepaRG_NFE2L2: Life Technologies and Expression Analysis (LTEA) Assay for Nuclear factor erythroid 2-related factor 2 (NFE2L2) Transcription Factor using HepaRG (AID 2283527);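 further: TaqMan qRT-PCR transcript level normalised to ACTB GAPDH and POLR2A housekeeping genes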
Outline: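 HepaRG, 48 h dosing, 8-pt half-log series from 100 uM in 0.5% DMSO, duplicates. Read-out: NFE2L2 mRNA by qRT-PCR (ACTB/GAPDH/POLR2A normalization). Bidirectional curve fit vs DMSO baseline.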

Measured: outcome

O=[N+]([O-])c1cccc([N+](=O)[O-])c1
inactive: all assays above

CC(C)OP(C)(=O)OC(C)C
inactive: all assays above

Cc1c([N+](=O)[O-])cccc1[N+](=O)[O-]
inactive: all assays above

Cc1cccc([N+](=O)[O-])c1[N+](=O)[O-]
inactive: all assays above

Cc1ccc([N+](=O)[O-])cc1[N+](=O)[O-]
inactive: all assays above
